{
  "sequences": {"note": "By UniProt entry, the sequences of proteins in these tests, tags left out. Where a name states a change or a piece, a line headed by the entry shows the natural chain unless it says otherwise.", "UniProt Q00987, whole entry, looked up": "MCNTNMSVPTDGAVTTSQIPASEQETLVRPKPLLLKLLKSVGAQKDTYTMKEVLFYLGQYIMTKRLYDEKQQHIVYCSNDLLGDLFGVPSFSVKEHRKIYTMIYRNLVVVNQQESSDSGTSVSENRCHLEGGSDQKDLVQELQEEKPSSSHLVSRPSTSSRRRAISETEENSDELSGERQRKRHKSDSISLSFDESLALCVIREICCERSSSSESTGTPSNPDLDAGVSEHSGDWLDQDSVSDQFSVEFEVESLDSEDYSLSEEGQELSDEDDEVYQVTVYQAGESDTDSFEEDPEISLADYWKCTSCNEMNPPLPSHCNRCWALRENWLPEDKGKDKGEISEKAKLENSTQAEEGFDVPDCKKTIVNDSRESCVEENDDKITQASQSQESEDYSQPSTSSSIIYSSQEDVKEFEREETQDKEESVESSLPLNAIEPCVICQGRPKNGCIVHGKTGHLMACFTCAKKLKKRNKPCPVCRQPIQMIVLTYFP", "UniProt Q96SW2": "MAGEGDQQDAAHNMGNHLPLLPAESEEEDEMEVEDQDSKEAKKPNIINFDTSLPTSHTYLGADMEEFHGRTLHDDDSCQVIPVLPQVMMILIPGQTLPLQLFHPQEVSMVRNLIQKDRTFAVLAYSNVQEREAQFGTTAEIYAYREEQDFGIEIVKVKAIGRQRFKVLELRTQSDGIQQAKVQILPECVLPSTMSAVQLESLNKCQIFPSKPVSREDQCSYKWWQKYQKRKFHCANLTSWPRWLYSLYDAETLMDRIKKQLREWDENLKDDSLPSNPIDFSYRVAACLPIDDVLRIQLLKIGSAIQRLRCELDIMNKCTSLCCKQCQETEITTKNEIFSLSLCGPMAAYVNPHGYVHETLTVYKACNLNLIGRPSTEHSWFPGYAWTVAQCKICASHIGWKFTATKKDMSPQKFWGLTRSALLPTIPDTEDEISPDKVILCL"},
  "source": "ChEMBL document CHEMBL5260839",
  "about": "(J Med Chem, 2019)",
  "key": {"[1]": {"molecular_target": "T1, Protein cereblon/E3 ubiquitin-protein ligase Mdm2 (Homo sapiens) (UniProt Q00987+Q96SW2)", "experiment": "PROTAC activity at CRBN/MDM2 in human RS4-11 cells harbouring wildtype p53 assessed as decrease in MDM2 protein level at 10 nM incubated for 2 hrs by Western blot analysis", "assay_type": "cell-based"}, "[2]": {"molecular_target": "T1, Protein cereblon/E3 ubiquitin-protein ligase Mdm2 (Homo sapiens)", "experiment": "PROTAC activity at CRBN/MDM2 in human RS4-11 cells harbouring wildtype p53 assessed as decrease in MDM2 protein level at 30 nM incubated for 2 hrs by Western blot analysis", "assay_type": "cell-based"}, "[3]": {"molecular_target": "T1, Protein cereblon/E3 ubiquitin-protein ligase Mdm2 (Homo sapiens)", "experiment": "PROTAC activity at CRBN/MDM2 in human RS4-11 cells harbouring wildtype p53 assessed as increase in p53 accumulation at 3 nM incubated for 2 hrs by Western blot analysis", "assay_type": "cell-based"}, "[4]": {"molecular_target": "T1, Protein cereblon/E3 ubiquitin-protein ligase Mdm2 (Homo sapiens)", "experiment": "PROTAC activity at CRBN/MDM2 in human RS4-11 cells harbouring wildtype p53 assessed as increase in p53 accumulation at 30 nM incubated for 2 hrs by Western blot analysis", "assay_type": "cell-based"}, "[5]": {"molecular_target": "T1, Protein cereblon/E3 ubiquitin-protein ligase Mdm2 (Homo sapiens)", "experiment": "PROTAC activity at CRBN/MDM2 in human RS4-11 cells harbouring wildtype p53 assessed as increase in p53 accumulation at 1 nM incubated for 2 hrs by Western blot analysis", "assay_type": "cell-based"}, "[6]": {"molecular_target": "T1, Protein cereblon/E3 ubiquitin-protein ligase Mdm2 (Homo sapiens)", "experiment": "PROTAC activity at CRBN/MDM2 in human MV4-11 cells assessed as fold reduction in MDM2 protein at 1 nM incubated for 2 hrs by Western blot analysis", "assay_type": "cell-based"}, "[7]": {"molecular_target": "T1, Protein cereblon/E3 ubiquitin-protein ligase Mdm2 (Homo sapiens)", "experiment": "PROTAC activity at CRBN/MDM2 in human MV4-11 cells assessed as fold reduction in MDM2 protein at 3 nM incubated for 2 hrs by Western blot analysis", "assay_type": "cell-based"}, "[8]": {"molecular_target": "T1, Protein cereblon/E3 ubiquitin-protein ligase Mdm2 (Homo sapiens)", "experiment": "PROTAC activity at CRBN/MDM2 in human MV4-11 cells assessed as fold reduction in MDM2 protein at 10 nM incubated for 2 hrs by Western blot analysis", "assay_type": "cell-based"}, "[9]": {"molecular_target": "T1, Protein cereblon/E3 ubiquitin-protein ligase Mdm2 (Homo sapiens)", "experiment": "PROTAC activity at CRBN/MDM2 in human MV4-11 cells assessed as fold reduction in MDM2 protein at 30 nM incubated for 2 hrs by Western blot analysis", "assay_type": "cell-based"}, "[10]": {"molecular_target": "T1, Protein cereblon/E3 ubiquitin-protein ligase Mdm2 (Homo sapiens)", "experiment": "PROTAC activity at CRBN/MDM2 in human MV4-11 cells assessed as fold increase in p53 accumulation at 1 nM incubated for 2 hrs by Western blot analysis", "assay_type": "cell-based"}, "[11]": {"molecular_target": "T1, Protein cereblon/E3 ubiquitin-protein ligase Mdm2 (Homo sapiens)", "experiment": "PROTAC activity at CRBN/MDM2 in human MV4-11 cells assessed as fold increase in p53 accumulation at 3 nM incubated for 2 hrs by Western blot analysis", "assay_type": "cell-based"}, "[12]": {"molecular_target": "T1, Protein cereblon/E3 ubiquitin-protein ligase Mdm2 (Homo sapiens)", "experiment": "PROTAC activity at CRBN/MDM2 in human MV4-11 cells assessed as fold increase in p53 accumulation at 10 nM incubated for 2 hrs by Western blot analysis", "assay_type": "cell-based"}, "[13]": {"molecular_target": "T1, Protein cereblon/E3 ubiquitin-protein ligase Mdm2 (Homo sapiens)", "experiment": "PROTAC activity at CRBN/MDM2 in human MV4-11 cells assessed as fold increase in p53 accumulation at 30 nM incubated for 2 hrs by Western blot analysis", "assay_type": "cell-based"}, "[14]": {"molecular_target": "T1, Protein cereblon/E3 ubiquitin-protein ligase Mdm2 (Homo sapiens)", "experiment": "PROTAC activity at CRBN/MDM2 in human RS4-11 cells harbouring wildtype p53 assessed as fold increase in p53 accumulation at 0.03 uM incubated for 2 hrs in the presence of lenalidomide by Western blot analysis", "assay_type": "cell-based"}, "[15]": {"molecular_target": "T1, Protein cereblon/E3 ubiquitin-protein ligase Mdm2 (Homo sapiens)", "experiment": "PROTAC activity at CRBN/MDM2 in human RS4-11 cells harbouring wildtype p53 assessed as fold decrease in MDM2 protein level at 30 nM preincubated with PR-171 for 4 hrs followed by compound treatment and measured after 2 hrs by Western blot analysis", "assay_type": "cell-based"}, "[16]": {"molecular_target": "T1, Protein cereblon/E3 ubiquitin-protein ligase Mdm2 (Homo sapiens)", "experiment": "PROTAC activity at CRBN/MDM2 in human RS4-11 cells harbouring wildtype p53 assessed as fold change in p53 accumulation at 30 nM preincubated with MG-132 for 4 hrs followed by compound treatment and measured after 2 hrs by Western blot analysis", "assay_type": "cell-based"}, "[17]": {"molecular_target": "T1, Protein cereblon/E3 ubiquitin-protein ligase Mdm2 (Homo sapiens)", "experiment": "PROTAC activity at CRBN/MDM2 in human RS4-11 cells harbouring wildtype p53 assessed as fold change in p53 accumulation at 30 nM preincubated with PR-171 for 4 hrs followed by compound treatment and measured after 2 hrs by Western blot analysis", "assay_type": "cell-based"}, "[18]": {"molecular_target": "T1, Protein cereblon/E3 ubiquitin-protein ligase Mdm2 (Homo sapiens)", "experiment": "PROTAC activity at CRBN/MDM2 in human RS4-11 cells harbouring wildtype p53 assessed as fold change in p53 accumulation by Western blot analysis relative to MI-1061", "assay_type": "cell-based"}, "[19]": {"molecular_target": "T1, Protein cereblon/E3 ubiquitin-protein ligase Mdm2 (Homo sapiens)", "experiment": "PROTAC activity at CRBN/MDM2 in human RS4-11 cells harbouring wildtype p53 assessed as upregulation of p53 mRNA expression by measuring fold change at 0.03 to 0.1 uM incubated for 6 hrs by qRT-PCR analysis relative to MI-1061", "assay_type": "cell-based", "conditions": "dose 0.03-0.1 µM"}, "[20]": {"molecular_target": "T1, Protein cereblon/E3 ubiquitin-protein ligase Mdm2 (Homo sapiens)", "experiment": "PROTAC activity at CRBN/MDM2 in human RS4-11 cells harbouring wildtype p53 assessed as upregulation of PUMA mRNA expression by measuring fold change at 0.03 to 0.1 uM incubated for 6 hrs by qRT-PCR analysis relative to MI-1061", "assay_type": "cell-based", "conditions": "dose 0.03-0.1 µM"}, "[21]": {"molecular_target": "T1, Protein cereblon/E3 ubiquitin-protein ligase Mdm2 (Homo sapiens)", "experiment": "In vivo PROTAC activity at CRBN/MDM2 in human RS4-11 cells xenografted in mouse assessed as fold change in MDM2 protein level in tumor at 25 mg/kg, iv administered as single dose and measured after 3 hrs by Western blot analysis", "assay_type": "functional, organism-based"}, "[22]": {"molecular_target": "T1, Protein cereblon/E3 ubiquitin-protein ligase Mdm2 (Homo sapiens)", "experiment": "In vivo PROTAC activity at CRBN/MDM2 in human RS4-11 cells xenografted in mouse assessed as fold change in MDM2 protein level in tumor at 25 mg/kg, iv administered as single dose and measured after 6 hrs by Western blot analysis", "assay_type": "functional, organism-based"}, "[23]": {"molecular_target": "T1, Protein cereblon/E3 ubiquitin-protein ligase Mdm2 (Homo sapiens)", "experiment": "In vivo PROTAC activity at CRBN/MDM2 in human RS4-11 cells xenografted in mouse assessed as fold change in p53 protein level in tumor at 25 mg/kg, iv administered as single dose and measured after 6 hrs by Western blot analysis", "assay_type": "functional, organism-based"}, "[24]": {"molecular_target": "T1, Protein cereblon/E3 ubiquitin-protein ligase Mdm2 (Homo sapiens)", "experiment": "In vivo PROTAC activity at CRBN/MDM2 in human RS4-11 cells xenografted in mouse assessed as fold change in p53 protein level in tumor at 25 mg/kg, iv administered as single dose and measured after 24 hrs by Western blot analysis", "assay_type": "functional, organism-based"}, "[25]": {"molecular_target": "T1, Protein cereblon/E3 ubiquitin-protein ligase Mdm2 (Homo sapiens)", "experiment": "In vivo PROTAC activity at CRBN/MDM2 in human RS4-11 cells xenografted in mouse assessed as fold change in p21 protein level in tumor at 25 mg/kg, iv administered as single dose and measured after 3 hrs by Western blot analysis", "assay_type": "functional, organism-based"}, "[26]": {"molecular_target": "T1, Protein cereblon/E3 ubiquitin-protein ligase Mdm2 (Homo sapiens)", "experiment": "In vivo PROTAC activity at CRBN/MDM2 in human RS4-11 cells xenografted in mouse assessed as fold change in p21 protein level in tumor at 25 mg/kg, iv administered as single dose and measured after 24 hrs by Western blot analysis", "assay_type": "functional, organism-based"}, "[27]": {"molecular_target": "T1, Protein cereblon/E3 ubiquitin-protein ligase Mdm2 (Homo sapiens)", "experiment": "In vivo PROTAC activity at CRBN/MDM2 in human RS4-11 cells xenografted in mouse assessed as fold change in cleaved PARP protein level in tumor at 25 mg/kg, iv administered as single dose and measured after 3 hrs by Western blot analysis", "assay_type": "functional, organism-based"}, "[28]": {"molecular_target": "T1, Protein cereblon/E3 ubiquitin-protein ligase Mdm2 (Homo sapiens)", "experiment": "In vivo PROTAC activity at CRBN/MDM2 in human RS4-11 cells xenografted in mouse assessed as fold change in cleaved PARP protein level in tumor at 25 mg/kg, iv administered as single dose and measured after 6 hrs by Western blot analysis", "assay_type": "functional, organism-based"}},
  "data": [
    {"smiles": "O=C1CCC(N2Cc3c(C#CCCCNC(=O)c4ccc(NC(=O)[C@@H]5NC6(CCCCC6)[C@@]6(C(=O)Nc7cc(Cl)ccc76)[C@H]5c5cccc(Cl)c5F)cc4)cccc3C2=O)C(=O)N1", "note": "(stereo partly drawn)", "values": [
      {"measurement": "fold change (FC)", "setting": "[1]", "result": 0.02},
      {"measurement": "fold change (FC)", "setting": "[2]", "result": 0.01},
      {"measurement": "fold change (FC)", "setting": "[3]", "result": 1.7},
      {"measurement": "fold change (FC)", "setting": "[4]", "result": 8.4},
      {"measurement": "fold change (FC)", "setting": "[5]", "result": 1.4},
      {"measurement": "fold change (FC)", "setting": "[6]", "result": 0.2},
      {"measurement": "fold change (FC)", "setting": "[7]", "result": 0.3},
      {"measurement": "fold change (FC)", "setting": "[8]", "result": 0.3},
      {"measurement": "fold change (FC)", "setting": "[9]", "result": 0.5},
      {"measurement": "fold change (FC)", "setting": "[10]", "result": 2},
      {"measurement": "fold change (FC)", "setting": "[11]", "result": 3.6},
      {"measurement": "fold change (FC)", "setting": "[12]", "result": 7.7},
      {"measurement": "fold change (FC)", "setting": "[13]", "result": 10.2},
      {"measurement": "fold change (FC)", "setting": "[14]", "result": 2.5},
      {"measurement": "fold change (FC)", "setting": "[15]", "result": 3.5},
      {"measurement": "fold change (FC)", "setting": "[16]", "result": 7.2},
      {"measurement": "fold change (FC)", "setting": "[17]", "result": 8.2},
      {"measurement": "fold change (FC)", "setting": "[18]", "result": "> 10"},
      {"measurement": "fold change (FC)", "setting": "[19]", "result": "> 10"},
      {"measurement": "fold change (FC)", "setting": "[20]", "result": "> 10"},
      {"measurement": "fold change (FC)", "setting": "[21]", "result": 0.4},
      {"measurement": "fold change (FC)", "setting": "[22]", "result": 0.2},
      {"measurement": "fold change (FC)", "setting": "[23]", "result": 2.6},
      {"measurement": "fold change (FC)", "setting": "[24]", "result": 2.9},
      {"measurement": "fold change (FC)", "setting": "[25]", "result": 1.4},
      {"measurement": "fold change (FC)", "setting": "[26]", "result": 2.4},
      {"measurement": "fold change (FC)", "setting": "[27]", "result": 5.9},
      {"measurement": "fold change (FC)", "setting": "[28]", "result": 12.4}
    ]}
  ]
}
